Assay results published in ChEMBL document CHEMBL2385080, “Designing bifunctional NOP receptor-mu opioid receptor ligands from NOP receptor-selective scaffolds. Part I” (2013).

Tests used:
[1] = molecular target: T1, Kappa-type opioid receptor (Homo sapiens, UniProt P41145); test: Agonist activity at human kappa opioid receptor transfected in CHO cells assessed as stimulation of [35S]GTPgammaS binding by liquid scintillation counting analysis
Mu-type opioid receptor [2] = molecular target: T2, Mu-type opioid receptor (Homo sapiens, UniProt P35372); test: Agonist activity at human mu opioid receptor transfected in CHO cells assessed as stimulation of [35S]GTPgammaS binding by liquid scintillation counting analysis
Nociceptin receptor [3] = molecular target: T3, Nociceptin receptor (Homo sapiens, UniProt P41146); test: Agonist activity at human nociceptin receptor transfected in CHO cells assessed as stimulation of [35S]GTPgammaS binding by liquid scintillation counting analysis
[4] = molecular target: T1, Kappa-type opioid receptor; test: Displacement of [3H] U69593 from human kappa opioid receptor transfected in CHO cells
Mu-type opioid receptor [5] = molecular target: T2, Mu-type opioid receptor; test: Displacement of [3H]DAMGO from human mu opioid receptor transfected in CHO cells
Nociceptin receptor [6] = molecular target: T3, Nociceptin receptor; test: Displacement of [3H] N/OFQ from human nociceptin receptor transfected in CHO cells

| Structure (SMILES) | EC50 [1] [nM] | EC50 (Mu-type opioid receptor [2]) [nM] | EC50 (Nociceptin receptor [3]) [nM] | Ki [4] [nM] | Ki (Mu-type opioid receptor [5]) [nM] | Ki (Nociceptin receptor [6]) [nM] |
| --- | --- | --- | --- | --- | --- | --- |
| O=C1Cc2ccccc2N1C1CCN(Cc2ccccc2)CC1 | < 10000 | 1980 |  |  |  |  |
| O=C1Cc2ccccc2N1C1CCN(C2CC[C@H]3CCCc4cccc2c43)CC1 (stereo not given in full) | < 10000 | 129 | 46.1 | 681 | 79.9 | 11.4 |
| O=C1Cc2ccccc2N1C1CCN(CC2CCCCC2)CC1 |  |  |  |  | 533 | 213 |
| O=C1CCc2ccccc2N1C1CCN(C2CCCCCCC2)CC1 | < 10000 |  | 101 | 37.9 | 47 | 18.7 |
